How the values were obtained:
[1] = system: formalin edema of a foot in the rat; conditions: in vivo, ip
[2] = system: carrageenin edema; conditions: rat, in vivo, ip
[3] = in vivo; conditions: rat
[4] = in vivo; conditions: mouse, ip
[5] = system: threshold of pain sensitivity in contact-heat stimulation; conditions: mouse, in vivo
[6] = system: cotton granuloma; conditions: in vivo

Cc1cccc(Nc2ccccc2C(=O)O)c1C [Mephenamine acid, N--(2,3-dimethylphenyl) anthranilic acid]
Therapeutic index (formalin edema) [1]: 1.5
Therapeutic index (carrageenin edema) [2]: 1.8
LD50 at 168 h ([3]; ip): 180 mg/kg
LD50 at 168 h ([3]; po): 520 mg/kg
LD50 at 168 h [4]: 150 mg/kg
Therapeutic index (analgetic activity) [5]: 8.3
Therapeutic index (cotton granuloma) [6]: 7.43

Reference: patent publication US4455312A
